{
  "source": "patent US20230228654A1",
  "about": "“Blood Sampling Device and Method for PEth Measurement” (CAPITAINER AB, priority 2020, published 2023)",
  "experiment": "Withstanding the temperature during production",
  "data": [
    {"substance": "sodium metavanadate [NaVO3]", "values": [
      {"measurement": "temperature stability", "result": "withstand the temperature during production"}
    ]}
  ]
}
